Results as given in patent publication US8680132B2, “Spiro-oxindole MDM2 antagonists” (priority 2010, dated 2014).
pIC50: −log10 of the molar value. Counter-ions that a name gives are not always drawn. Like-named read-outs stand apart in the source and are kept apart here.

Key:
[1] = system: HCT-116 (p53 wild-type); assay: Cell growth assay (WST-8); format: cell-based, human
[2] = system: HCT-116 (p53—/—); assay: Cell growth assay (WST-8); format: cell-based; settings: Homo sapiens, HCT-116, read-out: IC50 HCT-116 (p53—/—)
[3] = system: PC-3 (deleted p53); assay: Cell growth assay (WST-8); format: cell-based; settings: read-out: IC50 PC-3 (deleted p53)
[4] = system: SJSA-1 (p53 wild-type); assay: Cell growth assay (WST-8); format: cell-based
[5] = system: RS4; 11 (p53 wt); assay: cells; settings: Homo sapiens, RS4-11, read-out: RS4; 11 (p53 wt) IC50 (μM)
[6] = system: LNCAP (p53 wild-type); assay: Cell growth assay (WST-8); format: cell-based, human; settings: read-out: IC50 LNCAP (p53 wild-type)
[7] = Homo sapiens, HCT-116, read-out: IC50 HCT-116 (p53 wild-type)
[8] = Homo sapiens, SJSA-1, read-out: IC50 SJSA-1 (p53 wild-type)

Structure (SMILES) | pIC50 [1, 7] | pIC50 [2] | pIC50 [3] | pIC50 [4, 8] | IC50 [5] [µM] | pIC50 ([6]; Homo sapiens, LNCaP) | pIC50 ([1]; read-out: IC50 HCT-116 (p53 wild-type)) | pIC50 ([4]; read-out: IC50 SJSA-1 (p53 wild-type)) | pIC50 [6]
CC(C)(C)C[C@H]1N[C@@H](C(=O)N[C@H]2C[C@@](C)(O)C2)[C@H](c2cccc(Cl)c2)[C@@]12C(=O)Nc1cc(Cl)ccc12 [C034] | > 5.52 | < 5.00 |  |  |  |  |  |  | 
CC(C)(C)C[C@H]1N[C@@H](C(=O)N[C@H]2C[C@@](C)(O)C2)[C@H](c2cccc(Cl)c2F)[C@@]12C(=O)Nc1cc(F)ccc12 [C031] | > 5.52 | < 5.00 |  |  |  |  |  |  | 
CC(C)(C)C[C@@H]1N[C@@H](C(=O)N[C@H]2C[C@@](C)(O)C2)[C@H](c2cccc(F)c2F)[C@]12C(=O)Nc1cc(Cl)ccc12 [(2′S,3′R,4′S,5′R)-6-Chloro-4′-(2,3-difluoro-phenyl)-2′-(2,2-dimethyl-propyl)-2-oxo-1,2-dihydro-spiro[indole-3,3′-pyrrolidine]-5′-carboxylic acid (3-hydroxy-3-methyl-cyclobutyl)-amide, trifluoroacetate] | 6.70 | 4.88 |  |  |  |  |  |  | 
CC(C)(C)C[C@@H]1N[C@@H](C(=O)N[C@H]2C[C@@](C)(O)C2)[C@H](c2cccc(Cl)c2F)[C@]12C(=O)Nc1cc(F)c(F)cc12 [(2′S,3′R,4′S,5′R)-4′-(3-Chloro-2-fluoro-phenyl)-2′-(2,2-dimethyl-propyl)-5,6-difluoro-2-oxo-1,2-dihydro-spiro[indole-3,3′-pyrrolidine]-5′-carboxylic acid (3-hydroxy-3-methyl-cyclobutyl)-amide, trifluoroacetate] | 6.22 | 4.79 | 4.81 |  |  |  |  |  | 
CC(C)(C)C[C@@H]1N[C@@H](C(=O)N[C@H]2C[C@@](C)(O)C2)[C@H](c2cccc(Cl)c2F)[C@]12C(=O)Nc1cc(Cl)c(F)cc12 [(2′S,3′R,4′S,5′R)-6-Chloro-4′-(3-chloro-2-fluoro-phenyl)-2′-(2,2-dimethyl-propyl)-5-fluoro-2-oxo-1,2-dihydro-spiro[indole-3,3′-pyrrolidine]-5′-carboxylic acid (3-hydroxy-3-methyl-cyclobutyl)-amide, trifluoroacetate] | 6.70 | 4.85 | 4.53 |  |  |  |  |  | 
CC(C)(C)C[C@@H]1N[C@@H](C(=O)NC2CCC(O)CC2)[C@H](c2cccc(Cl)c2F)[C@]12C(=O)Nc1cc(Cl)c(F)cc12 (stereo partly drawn) [MI-710301] | 6.04 | 4.92 | 4.90 | 6.89 | 0.16 |  |  |  | 
CC(C)(C)C[C@@H]1N[C@@H](C(=O)NC2CCC(O)CC2)[C@H](c2cccc(Cl)c2)[C@]12C(=O)Nc1cc(Cl)ccc12 (stereo partly drawn) [MI-710601, (2′S,3′R,4′R,5′R)-6-Chloro-4′-(3-chloro-phenyl)-2′-(2,2-dimethyl-propyl)-2-oxo-1,2-dihydro-spiro[indole-3,3′-pyrrolidine]-5′-carboxylic acid (4-hydroxy-cyclohexyl)-amide, trifluoroacetate] |  | 4.94 | 4.74 | 6.42 | 0.13 | 6.68 |  |  | 
CC(C)(C)C[C@H]1N[C@@H](C(=O)NC2CCC(O)CC2)[C@H](c2cccc(Cl)c2F)[C@@]12C(=O)Nc1cc(F)ccc12 (stereo partly drawn) [MI-7105] | 6.55 | 4.73 | 4.67 | 6.59 | 0.37 | 6.74 |  |  | 
CC(C)(C)C[C@@H]1N[C@@H](C(=O)NC2CCC(O)CC2)[C@H](c2cccc(F)c2F)[C@]12C(=O)Nc1cc(Cl)ccc12 (stereo partly drawn) [MI-710201, (2′S,3′R,4′S,5′R)-6-Chloro-4′-(2,3-difluoro-phenyl)-2′-(2,2-dimethyl-propyl)-2-oxo-1,2-dihydro-spiro[indole-3,3′-pyrrolidine]-5′-carboxylic acid (4-hydroxy-cyclohexyl)-amide, trifluoroacetate] | 6.60 |  | 4.71 | 6.24 | 0.54 |  |  |  | 
CC(C)(C)C[C@H]1N[C@@H](C(=O)N[C@H]2C[C@@](C)(O)C2)[C@H](c2cccc(F)c2F)[C@@]12C(=O)Nc1cc(Cl)ccc12 [C027] | > 5.52 | < 5.00 |  |  |  |  |  |  | 
CC(C)(C)C[C@H]1N[C@@H](C(=O)NC2CCC(O)CC2)[C@H](c2cccc(F)c2F)[C@@]12C(=O)Nc1cc(Cl)ccc12 (stereo partly drawn) [MI-7102] | 6.70 | 4.57 | 4.72 | 6.38 | 0.46 | 6.60 |  |  | 
CC(C)(C)C[C@@H]1N[C@@H](C(=O)N[C@H]2C[C@@](C)(O)C2)[C@H](c2cccc(Cl)c2)[C@]12C(=O)Nc1cc(Cl)ccc12 [(2′S,3′R,4′R,5′R)-6-Chloro-4′-(3-chloro-phenyl)-2′-(2,2-dimethyl-propyl)-2-oxo-1,2-dihydro-spiro[indole-3,3′-pyrrolidine]-5′-carboxylic acid (3-hydroxy-3-methyl-cyclobutyl)-amide, trifluoroacetate] | 6.22 | 4.76 |  |  |  |  |  |  | 
CC(C)(C)C[C@H]1N[C@@H](C(=O)NC2CCC(O)CC2)[C@H](c2cccc(Cl)c2F)[C@@]12C(=O)Nc1cc(F)c(F)cc12 (stereo partly drawn) [MI-7104] |  | 4.78 | 4.78 |  | 0.52 |  | 6.43 | 6.05 | 6.31
CC(C)(C)C[C@@H]1N[C@@H](C(=O)NC2CCC(O)CC2)[C@H](c2cccc(Cl)c2F)[C@]12C(=O)Nc1cc(F)c(F)cc12 (stereo partly drawn) [MI-710401, (2′S,3′R,4′S,5′R)-4′-(3-Chloro-2-fluoro-phenyl)-2′-(2,2-dimethyl-propyl)-5,6-difluoro-2-oxo-1,2-dihydro-spiro[indole-3,3′-pyrrolidine]-5′-carboxylic acid (4-hydroxy-cyclohexyl)-amide, trifluoroacetate] | 6.43 | 4.78 | 4.78 | 6.05 | 0.66 | 6.31 |  |  | 
CC(C)(C)C[C@@H]1N[C@@H](C(=O)N[C@H]2C[C@@](C)(O)C2)[C@H](c2cccc(Cl)c2)[C@]12C(=O)Nc1cc(Cl)c(F)cc12 [(2′S,3′R,4′R,5′R)-6-Chloro-4′-(3-chloro-phenyl)-2′-(2,2-dimethyl-propyl)-5-fluoro-2-oxo-1,2-dihydro-spiro[indole-3,3′-pyrrolidine]-5′-carboxylic acid (3-hydroxy-3-methyl-cyclobutyl)-amide, trifluoroacetate] | 6.70 | 4.68 | 4.57 |  |  |  |  |  | 
CC(C)(C)C[C@H]1N[C@@H](C(=O)NC2CCC(O)CC2)[C@H](c2cccc(Cl)c2F)[C@@]12C(=O)Nc1cc(F)c(F)cc12 (stereo partly drawn) [MI-786] | 6.30 |  | 4.84 |  |  |  |  |  | 5.92
